The entries are a selection whose mix differs from that of the whole data set. Activity calls are given as the source filed them. Cut-off read from the data, not from the text of the source: active = enhancement above about 30%; inactive = the rest.

By UniProt entry, the sequences of proteins in these tests, tags left out.
UniProt P34981, whole entry: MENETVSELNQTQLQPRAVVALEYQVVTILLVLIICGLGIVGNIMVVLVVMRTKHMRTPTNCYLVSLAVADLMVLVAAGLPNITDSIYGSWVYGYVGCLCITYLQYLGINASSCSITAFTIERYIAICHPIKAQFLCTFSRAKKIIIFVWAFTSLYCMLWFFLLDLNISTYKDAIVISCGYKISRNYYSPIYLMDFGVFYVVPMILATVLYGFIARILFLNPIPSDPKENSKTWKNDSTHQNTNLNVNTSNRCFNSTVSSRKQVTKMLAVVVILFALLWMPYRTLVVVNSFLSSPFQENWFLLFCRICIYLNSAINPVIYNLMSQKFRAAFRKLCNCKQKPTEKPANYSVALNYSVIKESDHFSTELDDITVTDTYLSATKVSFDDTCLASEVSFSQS

This assay has as its target Thyrotropin-releasing hormone receptor (Homo sapiens) (UniProt P34981). Put plainly: qHTS for Small Molecule Agonists and Allosteric Enhancers of Human TRH Receptor: Primary Screen for Enhancers. Note: 0% is about no effect. As to conditions: TRHR cells, fluo-8 calcium fluorescence, EC20 TRH enhancement; at 2 µM; active compounds read high. From the text:
NIH Chemical Genomics Center [NCGC] NIH Molecular Libraries Probe Centers Network [MLPCN] MLPCN Grant: MH089816-01 Assay Submitter (PI): Marvin Gershengorn This project aims to identify small drug-like molecules that activate (agonists) the thyrotropin releasing hormone (TRH) receptor (TRHR) or enhance its TRH-stimulated activity (allosteric enhancers). TRHR, a drug-accessible cell surface receptor expressed in specific brain regions, and its ligand TRH have been implicated in several central nervous system disorders, including depression and anxiety. […]
For the HTS assay freshly prepared cells are plated at a density of 2000/well in 3 ul of complete DMEM medium containing 10% serum in 1536-well plates and cultured over night at 37 C in a humidified incubator with 5% CO2. […] For the assay, assay plates were loaded into the FDSS kinetic plate reader. […] The plate is measured for kinetically at 1 cycle/sec for 180 seconds and is considered to be the agonist portion of the assay (eg, compounds which activate a positive calcium response during this portion are flagged as potential agonists). Following the 180 second read, 1 ul of either an EC20 (positive modulation assay) is delivered by an onboard pipette head. […]
Turning to `CCC(=O)N1C2C3N(C(=O)CC)C1C1N(C(=O)CC)C(C(N1C(=O)CC)N3C(=O)CC)N2C(=O)CC`, the enhancement is inactive: 13.9%.
